According to patent US20240115729A1, “COMPOSITIONS AND METHODS FOR TARGETED ANTIFIBROTIC THERAPY IN CHRONIC PANCREATITIS” (University of Virginia Patent Foundation, priority 2021, published 2024):

Biological target: α-smooth muscle actin (α-SMA) (mouse) (UniProt P62737)
Experiment: IF colocalization (JACoP) of VT680 phage with marker, CP mouse pancreas sections

## SLTNSSF (SEQ ID NO: 27) phage clone (peptide)
  mean Manders' correlation coefficient (MCC), fraction of phage overlapping cell marker: 0.06
